From paper PMC3880566

Molecular target: GAL4 DNA-binding domain fusion of human AR-481-919 (pBDGAL4CAM-481–919) (human)
Test: two-hybrid

Substance: GAL4 activation domain fusion of CKβBP2/CRIF1 (HeLa cDNA clone in pGAD-GH) (from UniProt Q8TAE8 7-222) (natural protein)
- fold over the increase in β-galactosidase activity without CKβBP2/CRIF1: 4 fold
- fold β-galactosidase activity over background (with DHT): 8 fold
